Source: article PMC8526398 (Bioorganic & medicinal chemistry letters, 2021)

The chains behind the UniProt entries cited, without tags or fusion partners. Residues count along the entry.
UniProt P62993, 60-152 limits assumed: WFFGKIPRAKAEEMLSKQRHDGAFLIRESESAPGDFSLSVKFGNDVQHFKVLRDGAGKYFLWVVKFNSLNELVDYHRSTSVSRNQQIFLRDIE
UniProt P62993, whole entry: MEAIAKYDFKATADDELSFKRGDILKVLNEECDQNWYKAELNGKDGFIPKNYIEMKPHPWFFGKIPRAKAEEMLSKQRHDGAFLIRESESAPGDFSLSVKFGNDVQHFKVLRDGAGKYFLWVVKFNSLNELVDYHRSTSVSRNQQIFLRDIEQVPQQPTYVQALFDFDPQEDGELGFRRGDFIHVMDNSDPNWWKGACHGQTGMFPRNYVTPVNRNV

Columns and labels:
GRB2 SH2 domain = GRB2 SH2 domain (Homo sapiens, UniProt P62993); test: Differential scanning fluorimetry; type: binding; conditions: DSF, Tm of the SH2 domain in absence and presence of inhibitor
[1] = molecular target: full-length human GRB2 (EGFR/GRB2 PPI) (Homo sapiens, UniProt P62993); type: binding; conditions: comparison of Ki values in the parallel assays

| ΔTm (increase in thermostability of GRB2) (GRB2 SH2 domain) [°C] | fold more potent than the EGFR1068 phosphopeptide 14-mer [1] [fold] | SMILES |
| --- | --- | --- |
| 16.5 | – | NC(=O)C[C@@H]1NC(=O)C2(CCCCC2)NC(=O)C[C@@H](c2ccc(CP(=O)(O)O)cc2)/C=C/C[C@@H](Cc2cccc3ccccc23)CNC1=O [Compound 3] |
| 8.6 | 2 | NC(=O)C[C@@H]1NC(=O)C2(CCCCC2)NC(=O)C[C@@H](c2ccc(CC(=O)O)cc2)/C=C/C[C@@H](Cc2cccc3ccccc23)CNC1=O [Compound 7] |
